Source: patent US5843900A (priority 1995, dated 1998)

Amino acid sequences for entries named in this document (tags omitted).
UniProt P35372, whole entry, looked up: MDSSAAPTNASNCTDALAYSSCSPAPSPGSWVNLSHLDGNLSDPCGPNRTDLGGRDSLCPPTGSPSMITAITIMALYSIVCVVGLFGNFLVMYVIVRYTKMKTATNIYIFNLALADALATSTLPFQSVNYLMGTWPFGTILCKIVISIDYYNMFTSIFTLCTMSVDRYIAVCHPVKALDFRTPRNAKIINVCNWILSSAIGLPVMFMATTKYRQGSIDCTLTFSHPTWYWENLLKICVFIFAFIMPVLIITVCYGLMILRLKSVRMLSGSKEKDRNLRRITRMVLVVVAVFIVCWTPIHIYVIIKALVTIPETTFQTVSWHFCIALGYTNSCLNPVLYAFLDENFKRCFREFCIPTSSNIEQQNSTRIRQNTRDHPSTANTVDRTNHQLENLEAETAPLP
UniProt O70526, whole entry, looked up: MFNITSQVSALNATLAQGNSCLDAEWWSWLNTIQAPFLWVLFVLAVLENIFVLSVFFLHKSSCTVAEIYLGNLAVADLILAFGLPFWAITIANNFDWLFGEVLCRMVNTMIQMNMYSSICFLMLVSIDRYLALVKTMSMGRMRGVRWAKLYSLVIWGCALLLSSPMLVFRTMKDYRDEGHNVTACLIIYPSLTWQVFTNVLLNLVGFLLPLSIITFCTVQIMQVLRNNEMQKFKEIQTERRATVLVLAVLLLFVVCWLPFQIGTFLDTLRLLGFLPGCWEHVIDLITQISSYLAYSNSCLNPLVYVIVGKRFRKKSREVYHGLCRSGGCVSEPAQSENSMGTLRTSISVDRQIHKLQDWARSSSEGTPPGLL

Tests used:
[1] = test system: paw licking following formalin injection; test: Mouse Formalin Test; format: in vivo
[2] = test system: carrageenan induced edema in the rat hind paw; test: Rat Carrageenan Paw Edema; format: in vivo; conditions: s.c. 30 min before carrageenan 1% subplantar, 0-6 h
[3] = test system: mustard oil induced neurogenic inflammation in the rat hind paw; test: Mustard Oil-induced neurogenic inflammation in the Rat; format: in vivo; conditions: compared to saline controls, at the doses used
[4] = test system: response time of mice exposed to a hot surface; test: Mouse Hot Plate; conditions: 55° C. surface, up to 240 minutes, all doses studied
[5] = biological target: human mu receptor (Homo sapiens, UniProt P35372); test: Human Mu Receptor Binding (3H-DAMGO, human clone membranes); conditions: 3H-DAMGO 5nM, CHO-K1 clone hmu5 membranes
[6] = biological target: B2 receptor (Cavia porcellus, UniProt O70526); test: B2 receptor antagonist activity on guinea pig ileum (inhibition of myotropic activity of bradykinin, pA2); conditions: first part of Table I, Schild pA2 against bradykinin

SMILES | Mu Binding Human Clone [5] | BK2, pA2 (GPA) [6] | other results
CN1CC[C@]23c4c5ccc(O)c4O[C@H]2[C@@H](O)CC[C@H]3[C@H]1C5 | – | – | Straub tail effect (centrally mediated) ([1]; mice in formalin test, all doses): a typical Straub tail effect; mean ED50, first phase response (50% reduction of paw licking) ([1]; mouse, s.c. 30 minutes before formalin, early phase 0-5 min): 6.7 µmol/kg; mean ED50, second phase response (50% reduction of paw licking) ([1]; mouse, s.c. 30 minutes before formalin, late phase 15-30 min): 4.3 µmol/kg; effect on first and second phase responses (paw licking time) ([1]; mouse, s.c., compared to vehicle control, CP-0597 at 0.3-10 mg/kg s.c.): dose-dependent inhibition; effect on carrageenan edema response [2]: little to no effect; effect on mustard oil edema response (Evan's blue dye) [3]: without effect; time spent on the hot plate (response time) [4]: dose dependent increase
CN1CC[C@]23c4c5ccc(O)c4O[C@H]2[C@@H](OCCCCCC(=O)N[C@H](CCCNC(=N)N)C(=O)N[C@@H](CCCNC(=N)N)C(=O)N2CCC[C@H]2C(=O)N2C[C@H](O)C[C@H]2C(=O)NCC(=O)N[C@@H](Cc2cccs2)C(=O)N[C@@H](CO)C(=O)N2Cc4ccccc4C[C@@H]2C(=O)N(CC(=O)N[C@@H](CCCNC(=N)N)C(=O)O)C2CCCCC2)CC[C@H]3[C@H]1C5 [CP 900] | 8.6 | 8.0 | –
CN1CC[C@]23c4c5ccc(O)c4O[C@H]2[C@@H](OCCCc2cccc(C(=O)N[C@H](CCCNC(=N)N)C(=O)N[C@@H](CCCNC(=N)N)C(=O)N4CCC[C@H]4C(=O)N4C[C@H](O)C[C@H]4C(=O)NCC(=O)N[C@@H](Cc4cccs4)C(=O)N[C@@H](CO)C(=O)N4Cc6ccccc6C[C@@H]4C(=O)N(CC(=O)N[C@@H](CCCNC(=N)N)C(=O)O)C4CCCCC4)c2)C=C[C@H]3[C@H]1C5 [CP 902] | 8.4 | 8.7 | –
CN1CC[C@]23c4c5ccc(O)c4O[C@H]2[C@@H](OCCCc2ccc(C(=O)N[C@H](CCCNC(=N)N)C(=O)N[C@@H](CCCNC(=N)N)C(=O)N4CCC[C@H]4C(=O)N4C[C@H](O)C[C@H]4C(=O)NCC(=O)N[C@@H](Cc4cccs4)C(=O)N[C@@H](CO)C(=O)N4Cc6ccccc6C[C@@H]4C(=O)N(CC(=O)N[C@@H](CCCNC(=N)N)C(=O)O)C4CCCCC4)cc2)C=C[C@H]3[C@H]1C5 [CP 905] | 8.3 | 7.9 | –
CN1CC[C@]23c4c5ccc(O)c4O[C@H]2[C@@H](OCc2ccc(C(=O)N[C@H](CCCNC(=N)N)C(=O)N[C@@H](CCCNC(=N)N)C(=O)N4CCC[C@H]4C(=O)N4C[C@H](O)C[C@H]4C(=O)NCC(=O)N[C@@H](Cc4cccs4)C(=O)N[C@@H](CO)C(=O)N4Cc6ccccc6C[C@@H]4C(=O)N(CC(=O)N[C@@H](CCCNC(=N)N)C(=O)O)C4CCCCC4)cc2)C=C[C@H]3[C@H]1C5 [CP 906] | 8.3 | 7.9 | –
